# Test results published in ChEMBL document CHEMBL3102815, “Structure Guided Optimization, in Vitro Activity, and in Vivo Activity of Pan-PIM Kinase Inhibitors” (ACS Med Chem Lett, 2013).
# Amino acid sequences for entries named in this document (tags omitted). A change or cut given only in a name is not applied to a line headed by its entry.
# UniProt Q9P1W9: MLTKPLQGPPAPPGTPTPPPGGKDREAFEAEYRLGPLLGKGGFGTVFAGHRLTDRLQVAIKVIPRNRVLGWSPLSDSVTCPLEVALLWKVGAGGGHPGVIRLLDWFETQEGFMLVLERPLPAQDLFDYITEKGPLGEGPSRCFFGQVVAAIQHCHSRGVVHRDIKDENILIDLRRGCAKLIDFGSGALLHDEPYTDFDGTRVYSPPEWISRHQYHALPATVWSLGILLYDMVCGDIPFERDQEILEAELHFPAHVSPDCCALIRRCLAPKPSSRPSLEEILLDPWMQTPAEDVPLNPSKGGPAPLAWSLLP
# Target: Serine/threonine-protein kinase pim-2 (Homo sapiens, UniProt Q9P1W9)
smiles,measurement,value
CN1CCC(CNc2ccc3ncc(-c4cccc(OC(F)(F)F)c4)n3n2)CC1 [SGI-1776],Ki,610 nM
